Yeast mating assay 2: variants of the scFv Ab-91

Values reported by Engelhart et al. 2022, doi:10.1038/s41597-022-01779-4 (FLAb copy).

The target is the same throughout: PDVDLGDISGINAS, from the HR2 region of SARS-CoV-2 spike.

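Phage display of a naive human antibody library on the peptide gave the parent. Library AAYL51 holds single substitutions and randomly drawn double and triple substitutions in the CDRs. Affinity was read by AlphaSeq, a pooled yeast mating assay with surface-displayed partners. Mating (16 h, 30 °C) was followed by selection of diploids and sequencing of their barcodes. A regression on co-assayed BCL2-family reference pairs converts the normalised counts of each replicate to an apparent Kd. Mating was done three times.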

Parent: Ab-91, a human scFv built as VL, a 15-residue (Gly4Ser)3 linker, VH. Only the CDRs of the heavy chain vary.
VL: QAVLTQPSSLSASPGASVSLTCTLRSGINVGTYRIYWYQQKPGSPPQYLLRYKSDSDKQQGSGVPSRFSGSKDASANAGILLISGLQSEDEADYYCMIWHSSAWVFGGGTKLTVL
VH: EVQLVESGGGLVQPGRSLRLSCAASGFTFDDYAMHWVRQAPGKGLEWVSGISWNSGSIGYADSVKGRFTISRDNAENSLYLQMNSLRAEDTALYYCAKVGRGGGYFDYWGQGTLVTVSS

Variants are written as CDR1, CDR2 and CDR3 of the heavy chain (limits as in the source). Parent: GFTFDDYAMH, GISWNSGSIGYADSVK, VGRGGGYFDY. Kd is apparent (estimated from mating counts) and averaged on the log scale over replicates with a signal. Smaller is tighter. "not detected" marks a missing value. The strain was present, yet no cells mated with the target were sequenced in any replicate, which points to weak or no binding. Empty control strains, which show no peptide, gave a signal in 21% of pairings with library AAYL51; the median was 34 µM and 95% of these signals were weaker than 1.8 µM. No background was subtracted. In this assay the parent's reference entry averaged 72 nM; its copy inside this library read 7.5 nM.

CDR-H1 | CDR-H2 | CDR-H3 | Kd | replicates with signal
GFTFDDYAIH | MISWNSGSIGYADSVK | VGRGQGYFDY | 33 µM | 3/3
GMTFDDYAMH | GISWNSGSIGYADSYK | VGMGGGYFDY | 32 µM | 2/3
GFTLDDYAMH | GISWYSGSIGYADSVK | VQRGGGYFDY | not detected | 0/3
GFTFDDYAMH | KISWNSGSIGYADSVK | VGRGLEYFDY | 15 µM | 1/3
GFTFDDYAMH | GISWNSGSLGYADSVK | VGRVGGYFQY | 710 µM | 1/3
GETFDDYAMH | GISVNSGSIGYADSVK | VGRGGGYFDF | not detected | 0/3
GFTFDDYPMH | GISWNSGSIRYADPVK | VGRGGGYFDY | 1.0 mM | 2/3
GFTFFIYAMH | GISWNSGSIGYADSVK | VGRGGGYFDH | 5.4 µM | 2/3
GFTFDDYAMH | GISWNYGSIEYADSVL | VGRGGGYFDY | not detected | 0/3
GFTFDDYAMH | GISWNSGSIGYQDSVK | VGIGGGYMDY | 3.6 nM | 3/3
GFTFDDYMMT | GISWNSGSIGYADSVK | VGDGGGYFDY | not detected | 0/3
GFTFDDYAMH | GISWSSGSIGYADGIK | VGRGGGYFDY | not detected | 0/3
GFTFDDYAMH | GISWNSGSIGYADQVK | VGRVGGYQDY | not detected | 0/3
GFTFDDYAMV | GISWYSGSIRYADSVK | VGRGGGYFDY | not detected | 0/3
GFTFDDYAMH | GISWNSGSIGYADKVK | VGRGGGYFVT | not detected | 0/3
WFDFDDYAMH | GISWNSGSIGYADSVK | VGRGRGYFDY | 97 µM | 3/3
GFKFDDYAMH | GISWNSGSIGYADSVK | VGPGGGFFDY | 16 nM | 3/3
GFTFDDYAGH | GISWNSGSIGYADIVK | VGRGGGYYDY | 240 nM | 2/3
KFTFDDYAMH | GISWNSLSIGYADSVK | VGRGGGYFTY | not detected | 0/3
GFWFDDPAMH | GISWNSGSIGYADSVK | CGRGGGYFDY | 10 µM | 2/3
GFTFSDYAMH | GISWNSTSIGPADSVK | VGRGGGYFDY | not detected | 0/3
GFTFDDYAMH | DISWNSGSIGYADSVK | VGRGRGYTDY | 15 µM | 1/3
GFTRDDYWMH | GISWNSGSVGYADSVK | VGRGGGYFDY | 140 µM | 3/3
GFTFDDYAMH | GIRWNSVSCGYADSVK | VGRGGGYFDY | not detected | 0/3
GFTFDDYAMH | GISWNSGSIGYADSVK | VGRGGTYMDY | not detected | 0/3
GFTFDDLAMY | GFSWNSGSIGYADSVK | VGRGGGYFDY | not detected | 0/3
GFTFDDYAMH | GIAWNSGSIGCADSVK | IGRGGGYFDY | 150 µM | 3/3
GFTWDPYAMH | GISWNSVSIGYADSVK | VGRGGGYFDY | not detected | 0/3
GFTFDDYAMN | GISWNSGSIGHADMVK | VGRGGGYFDY | 160 µM | 3/3
GFTFDDYGMH | GISWNSGSIGYADSVS | VGEGGGYFDY | 800 pM | 3/3
GFTFDDYAMH | GYGWNSGSIGYADSVK | IGRGGGYFDY | not detected | 0/3
GFTFDDYAMH | GISWNSGFIGYADFVK | VGRGGGYNDY | 320 nM | 3/3
GFTFDDYAMV | GIFWNSGSIGYADSVL | VGRGGGYFDY | 77 µM | 2/3
GFTFFDYAMH | GISWNSGSIGYQDSVK | VGRGGGYFYY | 81 µM | 1/3
GFTFDDSAMH | GISWESGSIGYADSIK | VGRGGGYFDY | not detected | 0/3
GFTFDDYAMH | GISWNSGSIKYADSHK | VGREGGYFDY | not detected | 0/3
GFTFTDYAMH | GISWNSNSIWYADSVK | VGRGGGYFDY | not detected | 0/3
GNTFDDYANH | GGSWNSGSIGYADSVK | VGRGGGYFDY | 140 µM | 1/3
GFTFDDYAMH | GISWNSGSIGFADSVK | VIRGMGYFDY | 74 µM | 1/3
GFTFDDTAMH | GISWNSGSIGYGDSVK | VGRGGGYFDY | 280 nM | 3/3
GFTFDDYAMH | GISWNSGSIGYADRVQ | VGRGGGPFDY | 14 nM | 3/3
GFTFDDYAQH | GISSNSGSIGYADSVK | VGRGGGVFDY | not detected | 0/3
GFTFDDYAMH | GISWNHGHIGYACSVK | VGRGGGYFDY | not detected | 0/3
GDTMDDYAMH | GISWNSGSIGYADSVK | VGRGGGYFDV | 21 nM | 3/3
GFTFDDYAMH | DISWNSGSIGYADSVK | VGRGGGYFRY | not detected | 0/3
GFTTDDTAMH | GISWNSGSIGYADSVK | VGMGGGYFDY | 300 µM | 3/3
GFTFDDYAVN | GISWNSGSIGYADSVK | VQRGGGYFDY | not detected | 0/3
GFTFDDYAMH | GISSNSGSIGYADSVK | VGRGWGYFHY | not detected | 0/3
GFRFDDYAMH | GISRNSGSIGYADSSK | VGRGGGYFDY | 300 nM | 1/3
GFTFDDYMMH | GISWNSGFIGYADSVK | VGRGGEYFDY | not detected | 0/3
KFTFDDYAMH | GISWNSGKIGYADSVK | VQRGGGYFDY | 83 µM | 2/3
GFTFDDYAMH | GGSWNSGSILYADSVK | VGRGGGFFDY | not detected | 0/3
CFTFDDYKMH | GISWNSGSIGLADSVK | VGRGGGYFDY | 110 µM | 1/3
GFTFDDFAMH | GISWNSGSILYADSVK | VGRGGGWFDY | 110 µM | 2/3
GFTFDDYAMH | GISVNSGSIAYADSVK | VGRGGGYFDE | 1.8 µM | 2/3
GFTGCDYAMH | GISWNSGSIGYADSVK | VGRGGGYFLY | 100 µM | 1/3
GFTFDDYAMH | GISVNSGSIGYADSVN | VGRGGPYFDY | 140 µM | 3/3
GFTFDDYAMH | GISWCSGSIGYEDSVK | VGREGGYFDY | 110 µM | 3/3
GFTFDDYAMH | GISWNSGSIDWADQVK | VGRGGGYFDY | 230 µM | 2/3
GFNFDDYGMH | GISWNSGSIGYADSVK | VGRGGGCFDY | 48 nM | 3/3
GFTFDDYAMI | GISWNSGSLEYADSVK | VGRGGGYFDY | 11 µM | 1/3
GFTFHDYAMH | GIPWNSGSITYADSVK | VGRGGGYFDY | 11 µM | 2/3
GFTFDDYAMH | GISWMYGSIGYADSVK | VGRGGIYFDY | not detected | 0/3
GFTFDDYAMH | GISWNSGSIGYHDSVK | VGRGGGYFDQ | 5.7 nM | 3/3
GFCFDQYAMH | GISWNSGSIGNADSVK | VGRGGGYFDY | not detected | 0/3
GFTTDDYAMH | GISWNSGSIGYADSVK | VSRGGGYFDY | not detected | 0/3
GFTFHDYAMH | GISWNSYSIGYADSVK | VGRGGEYFDY | not detected | 0/3
GFTFDDYAMH | HISWNSGSIGYADPVK | VGRGGAYFDY | not detected | 0/3
GFTFDDYAMH | GISWNMGSIGYADSVK | VCRGGGYFKY | not detected | 0/3
GFTFDDYAMH | GISWPSGSIGYADQQK | VGRGGGYFDY | 3.1 µM | 2/3
GFTFDDYIMH | GISWNSGSINYADSVK | VARGGGYFDY | not detected | 0/3
GFTFDDYAMH | GWSWNSGSIGYAGSVQ | VGRGGGYFDY | not detected | 0/3
CFTFDDYAMH | GISWNSGYIGYADSVK | VGPGGGYFDY | not detected | 0/3
NFTFDDYAMH | GISWNNGSIGYADSVK | VGCGGGYFDY | 240 µM | 1/3
GFTFFDYAMH | GISWNSGSVGYHDSVK | VGRGGGYFDY | 760 nM | 3/3
GFTFDDYAMH | GISWNSGSIGYADSVK | RGRGGGIFDY | not detected | 0/3
GFTFDDYAMH | GFSWNSGIIGYADSVK | VGSGGGYFDY | 710 µM | 2/3
GFTFDDYAMH | GISWNSGCIGYADSVK | VGRGGGKFMY | 24 µM | 1/3
GGTFDDYAMH | GISWNSFSIGYADSVK | VGRGGMYFDY | 220 µM | 1/3
HFTFDDYAMH | GISWNSGSIGYADSVK | PGRGGGYADY | not detected | 0/3

For reference, 12 entries of the list once more:

CDR-H1,CDR-H2,CDR-H3,Kd,replicates with signal
GFTFDDYAMH,GISVNSGSIGYADSVN,VGRGGPYFDY,140 µM,3/3
GFTFDDYAQH,GISSNSGSIGYADSVK,VGRGGGVFDY,not detected,0/3
GFTFDDYAMH,GISWNSGSIGYADRVQ,VGRGGGPFDY,14 nM,3/3
GFTFDDYAMH,GGSWNSGSILYADSVK,VGRGGGFFDY,not detected,0/3
GFTFDDYAMH,DISWNSGSIGYADSVK,VGRGRGYTDY,15 µM,1/3
GFTFDDYAMH,GISWCSGSIGYEDSVK,VGREGGYFDY,110 µM,3/3
GFTFDDYAMH,GISWNSGCIGYADSVK,VGRGGGKFMY,24 µM,1/3
GFTFDDYAMH,GISVNSGSIAYADSVK,VGRGGGYFDE,1.8 µM,2/3
GFTFDDYAMH,GISWNSGSIDWADQVK,VGRGGGYFDY,230 µM,2/3
GFTFDDYAMH,GISWNSGSIGFADSVK,VIRGMGYFDY,74 µM,1/3
GFTTDDYAMH,GISWNSGSIGYADSVK,VSRGGGYFDY,not detected,0/3
GMTFDDYAMH,GISWNSGSIGYADSYK,VGMGGGYFDY,32 µM,2/3